According to patent US20210246208A1, “COMBINED INHIBITION OF PD-1/PD-L1, TGFB AND DNA-PK FOR THE TREATMENT OF CANCER” (MERCK PATENT GMBH, priority 2018, published 2021):

Experiments:
4T1 mammary tumors = experiment: 4T1 mammary tumor model, tumor volume and survival (Example 3A); details: radiation 8 Gy day 0-3, M3814 150 mg/kg p.o. q.d. day 0-14
[1] = tested on: EMT, fibrosis and VEGF pathway gene signatures in 4T1 tumor tissue; experiment: RNAseq gene signatures of 4T1 tumor tissue (Example 3G); format: in vivo, BALB/c mice; details: tumors harvested day 6
Method: Tumor tissues were harvested at Day 6 for RNAseq analysis. Gene expression signatures associated with (A) EMT, (B) fibrosis, and (C) VEGF pathway signatures are presented as box plots. Signature scores are defined as the mean log2 (fold change) among all genes in the signature.
RNAseq was performed with Qiagen targeted RNAseq panels consisting of 1278 total genes. EMT and fibrosis gene signatures were based on Qiagen gene lists and the VEGF pathway signature was based on the Biocarta VEGF pathway in Broad's Canonical Pathways. For these gene sets, signature scores are defined as the mean log2 (fold-change) among all genes in each gene signature. These were calculated by adding a pseudocount of 0.5 TPM to all genes and samples, determining the log2 (TPM), then subtracting the median log 2-TPM for each gene across all samples from the log2-TPM for each gene. Signature scores for gene sets are shown as boxplots.

Substance: anti-PD-L1/TGFβ Trap: full human IgG1 monoclonal antibody against human PD-L1 fused to the extracellular domain of human TGFβ receptor II (SEQ ID NO: 10 and 9)
- tumor volume (4T1 mammary tumors; concurrent dosing, day 10, Trap 492 μg day 0, 2, 4): significantly decreased tumor volume relative to isotype control
- tumor volume (4T1 mammary tumors; sequential dosing, day 11, Trap 492 μg day 4, 6, 8): decreased tumor volume relative to isotype control
- EMT signature score [1]: significantly reduced the EMT signature score relative to isotype control
- fibrosis signature score [1]: did not have a significant decrease in the fibrosis signature
